Data from patent publication US11845808B2, “Peptide inhibitors of interleukin-23 receptor and their use to treat inflammatory diseases” (Janssen Biotech, Inc., priority 2020, dated 2023).

What was measured:
IL-23R = target: T1, IL-23R (Homo sapiens, UniProt Q5VWK5); assay: DB cells IL23R pSTAT3 cell assay (pStat3 HTRF); format: cell-based; settings: IL-23R-expressing DB cells, IL-23 0.5 nM, 30 minutes
T1 construct: examines the levels of pSTAT3 in IL-23R-expressing DB cells when stimulated with IL-23; host or cells: DB cells
T1 sequence (Q5VWK5 24-629): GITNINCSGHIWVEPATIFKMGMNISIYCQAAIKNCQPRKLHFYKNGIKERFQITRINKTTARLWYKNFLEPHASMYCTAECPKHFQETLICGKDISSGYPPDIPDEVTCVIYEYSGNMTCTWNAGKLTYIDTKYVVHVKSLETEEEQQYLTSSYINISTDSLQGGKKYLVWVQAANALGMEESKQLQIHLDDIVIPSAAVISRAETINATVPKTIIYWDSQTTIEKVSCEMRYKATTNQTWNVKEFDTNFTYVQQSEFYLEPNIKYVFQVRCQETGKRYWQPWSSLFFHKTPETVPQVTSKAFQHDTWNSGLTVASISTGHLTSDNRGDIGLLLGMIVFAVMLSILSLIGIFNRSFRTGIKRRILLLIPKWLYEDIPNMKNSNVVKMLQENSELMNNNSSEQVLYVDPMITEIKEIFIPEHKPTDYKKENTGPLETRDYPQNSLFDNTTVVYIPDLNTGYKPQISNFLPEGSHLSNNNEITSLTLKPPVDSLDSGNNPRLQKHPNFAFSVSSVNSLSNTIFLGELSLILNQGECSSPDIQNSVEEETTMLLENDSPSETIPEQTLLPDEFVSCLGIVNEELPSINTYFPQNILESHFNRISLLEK
Excerpt: Human ELISA indicates the IL23-IL23R competitive binding assay described below, Rat ELISA indicates the rat IL-23R competitive binding ELISA assay described below, and pStat3HTRF indicates the DB cells IL-23R pSTAT3 cell assay described below. The peptides depicted in Table E1A and Table E1B are cyclized via a disulfide bridge formed between two Pen residues in these peptides. The peptides depicted in Table E2 are cyclized via a thioether bond between the indicated amino acid residues. Table E2 provides an illustrative structure depicting thioether cyclization, which is indicated in the table by the term “cyclo,” with the cyclic region bracketed immediately following the term “cyclo.” For certain peptides, the residue Abu is present where indicated, whereas in other embodiments, e.g., those related to the non-cyclized form, the Abu may be referred to as a hSer(Cl) or homoSer residue.
DB Cells IL23R pSTAT3 Cell Assay
Where not shown or it is marked as “0”, data was not yet determined.

[1] = Stability in simulated intestinal fluid (SIF); format: in vitro ADME; settings: 100 fold dilution of standard SIF concentration, 37° C., 20 μM
Method in brief: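 Peptides at 20 μM final were incubated at 37 °C in SIF (potassium phosphate with pancreatin, pH 6.8), and reactions were quenched with acetonitrile/1% formic acid at time points from 0 min to 24 h. Percent remaining relative to time 0 was determined by LC-MS/MS against an internal standard, and half-life came from a first-order decay fit.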

Stability in rat plasma = format: in vitro ADME; settings: SD rat plasma, 37° C., 20 μM
[2] = Stability in human fecal homogenate; format: in vitro ADME; settings: 20% human fecal homogenate, 37° C., 20 μM
[3] = Stability in cynomolgus monkey fecal homogenate; format: in vitro ADME; settings: 20% cynomolgus monkey fecal homogenate, 37° C., 20 μM
[4] = target: IL-23 stimulated phosphorylated STAT3 in PBMCs (Homo sapiens, UniProt Q5VWK5); assay: PBMC pSTAT3 assay; format: cell-based; settings: PBMCs from healthy donors, IL-23 5 ng/mL, 30 minutes
[5] = target: IL-23 induced IFNγ in natural killer (NK) cells (Homo sapiens, UniProt Q5VWK5); assay: NK cell based assay (IL-23/IL-18 induced IFNγ); settings: IL-23 at EC50 to EC75 and IL-18 10 ng/mL, IFNγ in supernatant after 20 to 24 hours
Excerpt: Example 3: NK Cell Based Assay

Substance	IC50 (IL-23R) [nM]	SIF t½ [1] [h]	t½: Rat Plasma EDTA (Stability in rat plasma) [h]	t½: Human Feces anaerobic [2] [h]	t½: Monkey Feces anaerobic [3] [h]	IC50 [4] [nM]	IC50 [5] [nM]
Ac-[Pen]-N-T-[W(5-Ca)]-[Lys(Ac)]-[Pen]-Phe[4-(2-aminoethoxy)]-[2-Nal]-[THP]-E-N-[3Pal]-[Sarc]-NH2 [Peptide 160]	> 10						
Ac-[Abu]-Q-T-[W(7-Me)]-Q-[Cys]-Phe[4-(2-aminoethoxy)]-[2-Nal]-[THP]-E-N-[3Pal]-[Sarc]-NH2 [Peptide 140]	0.791						
Ac-[Pen]-N-T-[W(7-Ph)]-[Cit]-[Pen]-Phe[4-(2-aminoethoxy)]-[2-Nal]-[THP]-E-N-[3Pal]-[Sarc]-NH2 [Peptide 126]	0.054	>24.0	>24.0				
Ac-[Abu]-Q-T-[W(7-Me)]-Q-[Cys]-Phe[4-(2-aminoethoxy)]-[2-Nal]-[THP]-E-N-[3Pal]-[bA]-NH2 [Peptide 113]	0.057	10		1.1	3.4		
Ac-[Pen]-N-T-[W(7-Me)]-[Lys(Ac)]-[Pen]-Phe[4-(2-aminoethoxy)]-[2-Nal]-[THP]-E-N-[4Pal]-[Sarc]-NH2 [Peptide 115]	0.023	>24.0	>24.0				
Ac-[Pen]-N-T-[W(5-CN)]-[Lys(Ac)]-[Pen]-Phe[4-(2-aminoethoxy)]-[2-Nal]-[THP]-E-N-[3Pal]-[Sarc]-NH2 [Peptide 154]	> 10						
Ac-[Pen]-[Gly(Allyl)]-T-(W(4-F)]-[Lys(Ac)]-[Pen]-[Tyr(O-Allyl)]-[2-Nal]-[THP]-[Lys(Ac)]-N-[3Pal]-[Sarc]-NH2 [Peptide 289]	0.059						
Ac-[Pen]-N-T-[W(7-Me)]-[Lys(Ac)]-[Pen]-Phe[4-(2-aminoethoxy)]-[W(6-Me)]-[a-MeLys]-[Lys(Ac)]-N-H-[Sarc]-NH2 [Peptide 36]	1.1	>24.0	>24.0	>24.0	14.8		
Ac-[Pen]-N-D-[W(7-Me)]-[Lys(Ac)]-[Pen]-Phe[4-(2-aminoethoxy)]-[2-Nal]-[THP]-E-N-[3Pal]-[Sarc]-NH2 [Peptide 290]	0.033						
Ac-[Pen]-N-T-[W(7-Et)]-[Lys(Ac)]-[Pen]-Phe[4-(2-aminoethoxy)]-[2-Nal]-[a-MeLys]-[Lys(Ac)]-N-H-[Sarc]-NH2 [Peptide 33]		>24.0	>24.0	25.7	18.1	2.2	1.32
Ac-[Pen]-N-T-[W(7-Et)]-[Lys(Ac)]-[Pen]-Phe[4-(2-aminoethoxy)]-[2-Nal]-[THP]-E-N-H-[Sarc]-NH2 [Peptide 32]		>24.0	>24.0	21.1	10.2	1.4	1.3
Ac-[Pen]-N-T-W-[Lys(Ac)]-[Pen]-Phe[4-(2-aminoethoxy)]-[2-Nal]-[THP]-E-N-[3Pal]-[Sarc]-NH2 [Peptide 158]						0.011	0.0258
Ac-[Pen]-N-T-[W(7-Ph)]-[Lys(Ac)]-[Pen]-Phe[4-(2-aminoethoxy)]-[2-Nal]-[THP]-E-N-[3Pal]-[bA]-NH2 [Peptide 116]	0.029	22.5	>24.0				
Ac-[Pen]-N-T-[W(7-Me)]-[Lys(Ac)]-[Pen]-Phe[4-(2-aminoethoxy)]-[2-Nal]-[THP]-[Lys(Ac)]-N-[3Pal]-[Sarc]-NH2 [Peptide 141]	0.889						
Ac-[Pen]-N-T-[W(7-Ph)]-[Lys(Ac)]-[Pen]-Phe[4-(2-aminoethoxy)]-[3Quin]-[a-MeLys]-[Lys(Ac)]-N-[(D)Lys]-[Sarc]-NH2 [Peptide 12]		>24.0	>24.0	>24.0	>24.0	10	1.91
Ac-[Pen]-N-T-[W(7-Ph)]-[Lys(Ac)]-[Pen]-Phe[4-(2-aminoethoxy)]-[2-Nal]-[a-MeLys]-[Lys(Ac)]-N-[3Pal]-[bA]-NH2 [Peptide 130]	0.066	0.2	>24.0				
Ac-[Pen]-N-T-[W(7-Me)]-[Lys(Ac)]-[Pen]-Phe[4-(2-aminoethoxy)]-[3-Quin]-[THP]-E-N-[(D)Leu)]-[Sarc]-NH2 [Peptide 6]		>24.0	13.9	>24.0	>24.0	4.4	
Ac-[Pen]-[Gly(Allyl)]-D-[W(7-Me)]-[Lys(Ac)]-[Pen]-[Tyr(O-Allyl)]-[2-Nal]-[THP]-[Lys(Ac)]-N-[3Pal]-[Sarc]-NH2 [Peptide 288]	0.062						
Ac-[Pen]-N-T-[W(5-Ph)]-[Lys(Ac)]-[Pen]-Phe[4-(2-aminoethoxy)]-[2-Nal]-[THP]-E-N-[3Pal]-[Sarc]-NH2 [Peptide 150]	> 10	>24.0		>24.0	>24.0		
Ac-[Pen]-N-T-[W(7-Me)]-[Lys(Ac)]-[Pen]-Phe[4-(2-aminoethoxy)]-[2-Nal]-[THP]-E-N-[3Quin]-[Sarc]-NH2 [Peptide 118]	0.057	>24.0	>24.0				
Ac-[(D)Arg]-[Abu]-S-T-[W(7-Me)]-Q-[Cys]-Phe[4-(2-aminoethoxy)]-[2-Nal]-[THP]-E-N-H-[Sarc]-NH2 [Peptide 100]	1.51	>24.0		1.6	5.4		
Ac-[Abu]-Q-T-[W(7-Me)]-Q-[Cys]-Phe[4-(2-aminoethoxy)]-[2-Nal]-[THP]-E-S-[3Pal]-[bA]-NH2 [Peptide 114]	0.035	10.7		0.8	2.7		
Ac-[(D)Arg]-[Pen]-N-T-[W(7-Me)]-[Lys(Ac)]-[Pen]-Phe[4-(2-aminoethoxy)]-[2-Nal]-[THP]-E-N-[His(3-Me)]-[Sarc]-NH2 [Peptide 261]	0.046						
Ac-[Pen]-N-T-[W(7-Ph)]-[Lys(Ac)]-[Pen]-Phe[4-(2-aminoethoxy)]-[3Quin]-[THP]-E-N-[(D)Lys]-[Sarc]-NH2 [Peptide 11]		>24.0	12.5	>24.0	>24.0	5.4	1.73
